# Reference: patent publication US7501421B2, “Benzoxazole and benzothiazole derivatives as 5-hydroxytryptamine-6 ligands” (Wyeth, priority 2006, dated 2009)
# Sequences of proteins named here, by UniProt entry; tags and fusion partners are left off.
# UniProt P50406, whole entry: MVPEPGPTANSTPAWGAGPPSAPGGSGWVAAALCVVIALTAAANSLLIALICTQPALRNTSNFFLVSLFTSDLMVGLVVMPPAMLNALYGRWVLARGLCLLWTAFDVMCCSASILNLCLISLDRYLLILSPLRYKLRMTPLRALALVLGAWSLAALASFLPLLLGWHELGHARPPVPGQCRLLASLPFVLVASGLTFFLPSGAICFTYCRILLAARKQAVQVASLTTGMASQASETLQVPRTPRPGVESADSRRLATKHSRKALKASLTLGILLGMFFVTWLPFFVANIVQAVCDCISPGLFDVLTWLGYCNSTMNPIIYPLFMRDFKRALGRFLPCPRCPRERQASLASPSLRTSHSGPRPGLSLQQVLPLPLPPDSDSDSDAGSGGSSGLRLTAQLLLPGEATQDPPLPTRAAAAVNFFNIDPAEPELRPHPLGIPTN
# Where a name gives a salt, the structure may show the parent alone.
# Target: human cloned 5-HT6 receptors (Homo sapiens, UniProt P50406)
# Experiment: Evaluation of 5-HT6 binding affinity ([3H]-LSD radioligand binding)
# Conditions: read-out: 5-HT6 Binding Ki; membranes of Hela cells expressing human cloned 5-HT6 receptors; [3H]-LSD 3.0 nM; 120 minutes at room temperature
row,Ki,Structure (SMILES)
1,36 nM,CCCN1CCN(c2nc3c(S(=O)(=O)c4cccc5ccccc45)cccc3o2)CC1 [Example 24]
2,54 nM,O=S(=O)(c1cccc(F)c1)c1cccc2oc(N3CCNCC3)nc12 [Example 14]
3,33 nM,O=S(=O)(c1ccc(C(F)(F)F)cc1)c1cccc2oc(N3CCNCC3)nc12 [Example 19]
4,3.1 nM,"O=S(=O)(c1cccc2ccccc12)c1cccc2oc(N3CCNCC3)nc12 [Example 12, 4-(1-Naphthylsulfonyl)-2-piperazin-1-ylbenzoxazole Dihydrochloride]"
5,13 nM,O=S(=O)(c1cc(Cl)ccc1Cl)c1cccc2oc(N3CCNCC3)nc12 [Example 21]
6,52 nM,"O=S(=O)(c1ccc2oc(N3CCNCC3)nc2c1)c1cccc2ccccc12 [Example 5, 5-(1-Naphthylsulfonyl)-2-piperazin-1-ylbenzoxazole Dihydrochloride]"
7,22 nM,CC(C)c1ccc(S(=O)(=O)c2cccc3oc(N4CCNCC4)nc23)cc1 [Example 17]
8,13 nM,CC(C)N1CCN(c2nc3c(S(=O)(=O)c4cccc5ccccc45)cccc3o2)CC1 [Example 25]
9,64 nM,O=S(=O)(c1ccc(F)cc1)c1cccc2oc(N3CCNCC3)nc12 [Example 15]
10,196 nM,"O=S(=O)(c1ccc2nc(N3CCNCC3)oc2c1)c1cccc2ccccc12 [Example 35, 6-(1-naphthylsulfonyl)-2-piperazin-1-ylbenzoxazole Dihydrochloride]"
11,72 nM,O=S(=O)(c1cccc2ccccc12)c1cccc2oc(N3CCN(C4CCC4)CC3)nc12 [Example 29]
12,22 nM,O=S(=O)(c1cccc(C(F)(F)F)c1)c1cccc2oc(N3CCNCC3)nc12 [Example 18]
13,25 nM,COc1cccc(S(=O)(=O)c2cccc3oc(N4CCNCC4)nc23)c1 [Example 20]
14,176 nM,CC(C)CN1CCN(c2nc3c(S(=O)(=O)c4cccc5ccccc45)cccc3o2)CC1 [Example 27]
15,31 nM,O=S(=O)(c1cccc(Cl)c1)c1cccc2oc(N3CCNCC3)nc12 [Example 16]
16,88 nM,CCCCN1CCN(c2nc3c(S(=O)(=O)c4cccc5ccccc45)cccc3o2)CC1 [Example 26]

row,Structure (SMILES),Ki
1,"CCN1CCN(c2nc3c(S(=O)(=O)c4cccc5ccccc45)cccc3o2)CC1 [Example 23, 2-(4-Ethylpiperazin-1-yl)-4-(1-naphthylsulfonyl)benzoxazole Dihydrochloride]",12 nM
